Measured values taken from ChEMBL document CHEMBL4476868, “Benzimidazole derivatives and uses thereof” (2017).

The chains behind the UniProt entries cited, without tags or fusion partners.
UniProt Q9NR19, whole entry: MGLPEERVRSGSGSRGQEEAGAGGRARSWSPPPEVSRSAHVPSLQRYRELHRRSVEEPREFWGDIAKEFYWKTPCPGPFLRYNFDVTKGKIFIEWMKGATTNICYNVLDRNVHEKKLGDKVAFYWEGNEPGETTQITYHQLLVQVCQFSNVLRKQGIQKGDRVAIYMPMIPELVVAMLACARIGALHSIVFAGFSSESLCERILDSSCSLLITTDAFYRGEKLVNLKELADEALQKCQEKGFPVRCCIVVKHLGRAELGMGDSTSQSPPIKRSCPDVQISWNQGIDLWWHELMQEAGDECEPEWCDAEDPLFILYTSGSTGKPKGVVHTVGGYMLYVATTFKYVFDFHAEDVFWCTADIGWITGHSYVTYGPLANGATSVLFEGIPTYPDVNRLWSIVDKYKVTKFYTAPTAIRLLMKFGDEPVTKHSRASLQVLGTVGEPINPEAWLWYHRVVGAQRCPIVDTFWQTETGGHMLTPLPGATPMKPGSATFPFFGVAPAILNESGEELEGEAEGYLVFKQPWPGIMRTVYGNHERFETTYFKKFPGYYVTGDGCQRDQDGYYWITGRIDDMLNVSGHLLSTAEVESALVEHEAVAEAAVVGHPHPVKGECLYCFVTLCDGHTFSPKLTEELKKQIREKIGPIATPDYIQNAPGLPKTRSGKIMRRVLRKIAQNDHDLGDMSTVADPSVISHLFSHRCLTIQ

Biological target: T1, Acetyl-coenzyme A synthetase, cytoplasmic (Homo sapiens, UniProt Q9NR19)
Assay: Inhibition of N-terminal 6x-histidine tagged human ACSS2 expressed in insect cells assessed as reduction in pyrophosphate production using CoA and ATP incubated for 30 mins by pyrophosphatase coupled enzymatic assay

Row | SMILES | IC50 [nM]
1 | CCn1c(C(O)(c2ccccc2)c2ccccc2)nc2ccc(C(F)(F)CO)cc21 | < 50
2 | CCn1c(C(O)(c2ccccc2)c2ccccc2)nc2ccc(C(=O)NC3CCC(O)CC3)cc21 (centres undefined) | 50 to 249
3 | CCN1CC(NC(=O)c2ccc3nc(C(O)(c4ccccc4)c4ccccc4)n(CCO)c3c2)CCC1=O (centres undefined) | < 50
4 | CCn1c(C(O)(c2ccccc2)c2ccccc2)nc2ccc(NC(=O)CC#N)cc21 | < 50
5 | CCn1c(C(O)(c2ccccc2)c2ccccc2)nc2ccc(NC(=O)CO)cc21 | < 50
6 | CCc1cccc(NC(=O)c2ccc3nc(C(O)(c4ccccc4)c4ccccc4)n(CC)c3c2)c1 | < 50
7 | CCn1c(C(O)(c2ccccc2)c2ccccc2)nc2ccc(NC(C)=O)cc21 | 50 to 249
8 | CCNS(=O)(=O)c1ccc2nc(C(O)(c3ccccc3)c3ccccc3)n(CC)c2c1 | < 50
9 | Cn1c(C(O)(c2ccccc2)c2ccccc2)nc2ccc(C(=O)NCCF)cc21 | < 50
10 | CCn1c(C(O)(c2ccccc2)c2ccccc2)nc2ccc(C(=O)NC[C@H](O)COC)cc21 | < 50
11 | CCn1c(C(O)(c2ccccc2)c2ccccc2)nc2ccc(C(=O)NCc3ccccc3)cc21 | < 50
12 | CC(C)n1c(C(O)(c2ccccc2)c2ccccc2)nc2ccc(C(=O)NC[C@@H](C)O)cc21 | > 1000
13 | CCn1c(C(O)(c2ccccc2)c2ccccc2)nc2ccc(C(=O)NCCCOC)cc21 | 50 to 249
14 | CCn1c(C(O)(c2ccccc2)c2ccccc2)nc2cc(OCCO)ccc21 | > 1000
15 | CCn1c(C(O)(c2ccccc2)c2ccccc2)nc2ccc(C(=O)Nc3ccn(C4CC4)n3)cc21 | < 50
16 | CCn1c(C(O)(c2ccccc2)c2ccccc2)nc2ccc(NC(=O)c3cccc(OC)c3)cc21 | < 50
17 | CCn1c(C(O)(c2ccccc2)c2ccccc2)nc2ccc(C(=O)NC[C@@H](O)CF)cc21 | < 50
18 | CCn1c(C(O)(c2ccccc2)c2ccccc2)nc2ccc(CNC(=O)OC)cc21 | < 50
19 | CCn1c(C(O)(c2ccccc2)c2ccccc2)nc2ccc(C(=O)Nc3cc(OC)c(OC)c(OC)c3)cc21 | < 50
20 | CCn1c(C(O)(c2ccccc2)c2ccccc2)nc2c(F)cc(C#N)cc21 | > 1000
21 | CCn1c(C(O)(c2ccccc2)c2ccccc2)nc2ccc(C(=O)Nc3cc(OC)cc(OC)c3)cc21 | < 50
22 | CCn1c(C(O)(c2ccccc2)c2ccccc2)nc2ccc(C(=O)NCCCO)cc21 | 50 to 249

Row | SMILES | IC50 [nM]
23 | CCn1c(C(O)(c2ccccc2)c2ccccc2)nc2ccc(C(NC[C@@H](C)O)C(F)(F)F)cc21 (mixture of isomers) | > 1000
24 | CCn1cc(NC(=O)c2ccc3nc(C(O)(c4ccccc4F)c4ccccc4F)n(CCO)c3c2)cn1 | < 50
25 | CCn1c(C(O)(c2ccccc2)c2ccccc2)nc2ccc(C(=O)NCC(F)(F)CO)cc21 | < 50
26 | CCn1c(C(O)(c2ccccc2)c2ccccc2)nc2cnc(OC)cc21 | > 1000
27 | CCn1c(C(O)(c2ccccc2)c2ccccc2)nc2ccc(OCCCO)cc21 | 50 to 249
28 | CCn1c(C(O)(c2ccccc2)c2ccccc2)nc2ccc(CCC(C)O)cc21 (centres undefined) | < 50
29 | CCn1c(C(O)(c2ccccc2)c2ccccc2)nc2ccc(NC(=O)CCOC)cc21 | < 50
30 | CCn1ccc(NC(=O)c2ccc3nc(C(O)(c4ccccc4F)c4ccccc4F)n(CC)c3c2)n1 | < 50
31 | CCn1c(C(O)(c2ccccc2)c2ccccc2)nc2ccc(C(=O)NCCN)cc21 | 50 to 249
32 | NS(=O)(=O)c1ccc2nc(C(O)(c3ccccc3)c3ccccc3)n(CCO)c2c1 | < 50
33 | CCn1c(C(O)(c2ccccc2)c2ccccc2)nc2ccc(C(=O)Nc3ccn(CC(C)O)n3)cc21 (centres undefined) | < 50
34 | CCn1c(C(O)(c2ccccc2)c2ccccc2)nc2ccc(S(C)(=O)=O)cc21 | < 50
35 | CCn1c(C(O)(c2ccccc2)c2ccccc2)nc2ccc(S(N)(=O)=O)cc21 | < 50
36 | CCn1c(C(O)(c2ccccc2)c2ccccc2)nc2ccc(C(=O)Nc3nc(C)c[nH]3)cc21 | < 50
37 | CCn1c(C(O)(c2ccccc2)c2ccccc2)nc2ccc(C(=O)NC)cc21 | 50 to 249
38 | CCCC(O)CNC(=O)c1ccc2nc(C(O)(c3ccc(F)cc3)c3ccc(F)cc3)n(CC)c2c1 (centres undefined) | < 50
39 | CCn1c(C(O)(c2ccccc2)c2ccccc2)nc2ccc(C(=O)Nc3ccn(CCOC)n3)cc21 | < 50
40 | CCn1c(C(O)(c2ccccc2)c2ccccc2)nc2ccc(OCC(=O)O)cc21 | 50 to 249
41 | CCn1c(C(O)(c2ccccc2)c2ccccc2)nc2ccc(C(F)(F)C(=O)NC)cc21 | < 50
42 | CCn1c(C(O)(c2ccccc2)c2ccccc2)nc2ccc(CC(F)(F)CO)cc21 | < 50
43 | CCn1c(C(O)(c2ccccc2)c2ccccc2)nc2ccc(C(=O)Nc3cncc(OC)c3)cc21 | < 50
44 | CCn1c(C(O)(c2ccccc2)c2ccccc2)nc2ccc(C(=O)NCC(C)C)cc21 | 50 to 249

Row | SMILES | IC50 [nM]
45 | CNC(=O)c1ccc2nc(C(O)(c3ccccc3)c3ccccc3)n(C)c2c1 | 50 to 249
46 | CCN1CC(NC(=O)c2ccc3nc(C(O)(c4ccccc4)c4ccccc4)n(CC)c3c2)CCC1=O (centres undefined) | < 50
47 | CCn1c(C(O)(c2ccccc2)c2ccccc2)nc2ccc(C(=O)NC[C@H](O)CCC(F)F)cc21 | < 50
48 | CCn1c(C(O)(c2ccccc2)c2ccccc2)nc2ccc(C(=O)NCCF)cc21 | < 50
49 | CCn1c(C(O)(c2ccccc2)c2ccccc2)nc2ccc(S(=O)(=O)NC)cc21 | < 50
50 | CCn1c(C(O)(c2ccc(F)cc2)c2ncccc2C)nc2ccc(CCCO)cc21 (centres undefined) | < 50
51 | CCn1c(C(O)(c2ccccc2)c2ccccc2)nc2cc(O)ccc21 | > 1000
52 | CCn1c(C(O)(c2ccccc2)c2ccccc2)nc2ccc(C(=O)NC3CCNCC3)cc21 | 50 to 249
53 | CCn1c(C(O)(c2ccccc2)c2ccccc2)nc2ccc(OCCO)cc21 | 50 to 249
54 | CCn1c(C(O)(c2ccccc2)c2ccccc2)nc2ccc(C(O)C(F)(F)CO)cc21 (centres undefined) | < 50
55 | CCn1c(C(O)(c2ccccc2)c2ccccc2)nc2ccc(C(=O)Nc3ccn(CCO)n3)cc21 | < 50
56 | CCn1c(C(O)(c2ccccc2)c2ncccc2F)nc2ccc(CCCO)cc21 (centres undefined) | < 50
57 | Cn1c(C(O)(c2ccccc2)c2ccccc2)nc2ccc(C(=O)NCC(F)F)cc21 | < 50
58 | CCN1C[C@@H](NC(=O)c2ccc3nc(C(O)(c4ccccc4)c4ccccc4)n(C)c3c2)CCC1=O | < 50
59 | COc1cc(NC(=O)c2ccc3nc(C(c4ccccc4)c4ccccc4)[nH]c3c2)cc(OC)c1OC | < 50
60 | CCn1c(C(O)(c2ccccc2)c2ccccc2)nc2ccc(C(O)CCO)cc21 (centres undefined) | < 50
61 | CCn1c(C(O)(c2ccccc2)c2ccccc2)nc2ccc(CCCO)cc21 | < 50
62 | CCn1cc(NC(=O)c2ccc3nc(C(O)(c4ccccc4)c4ccccc4)n(CC)c3c2)cn1 | < 50
63 | CCn1c(C(O)(c2ccccc2)c2ccccc2)nc2ccc(CC(N)=O)cc21 | < 50
64 | CCn1c(C(O)(c2ccccc2)c2ccccc2)nc2cc(C(=O)OCCO)ccc21 | > 1000
65 | CCn1c(C(O)(c2ccccc2)c2ccccc2)nc2ccc(C(=O)Nc3cccc(OC)c3)cc21 | < 50
66 | Cc1ccc2nc(C(c3ccccc3F)c3ccccc3F)n(C)c2c1 | > 1000

Row | SMILES | IC50 [nM]
67 | CCn1c(C(O)(c2ccccc2)c2ccccc2)nc2ccc(C(=O)NCC(F)(F)C#N)cc21 | < 50
68 | CCn1cc(NC(=O)c2ccc3nc(C(O)(c4ccccc4)c4ccccc4)n(CCO)c3c2)cn1 | < 50
69 | CCn1c(C(O)(c2ccccc2)c2ccccc2)nc2ccc(C(=O)NC[C@@H](C)O)c(F)c21 | < 50
70 | CCn1c(C(O)(c2ccccc2)c2ccccc2)nc2ccc(C(=O)NOC)cc21 | < 50
71 | CCn1c(C(O)(c2ccccc2)c2ccccc2)nc2ccc(C(F)(F)C(N)=O)cc21 | < 50
72 | CCn1c(C(O)(c2ccccc2)c2ccccc2)nc2ccc(C(=O)NC3CCOCC3)cc21 | 50 to 249
73 | CCn1c(C(O)(c2ccccc2)c2ccccc2)nc2c(OC)cc(C)cc21 | > 1000
74 | CCn1c(C(O)(c2ccccc2)c2ccccc2)nc2c(Cl)cc(C(=O)O)cc21 | > 1000
75 | CCn1c(C(O)(c2ccccc2)c2ccccc2)nc2ccc(C(=O)NC[C@H](O)CF)cc21 | < 50
76 | NS(=O)(=O)c1cc2c(cc1F)nc(C(O)(c1ccccc1F)c1ccccc1F)n2CCO | < 50
77 | Cc1ccc2nc(C(O)(CO)c3ccccc3)n(C)c2c1 (centres undefined) | > 1000
78 | C[C@@H](O)CNC(=O)c1ccc2nc(C(O)(c3ccccc3)c3ccccc3)n(C3COC3)c2c1 | > 1000
79 | CCn1c(C(O)(c2ccccc2)c2ccccc2)nc2ccc(C)cc21 | 50 to 249
80 | CNC(=O)c1ccc2c(c1)nc(C(O)(c1ccccc1)c1ccccc1)n2C | > 1000
81 | CCOC(=O)C(F)(F)CNC(=O)c1ccc2nc(C(O)(c3ccccc3)c3ccccc3)n(CC)c2c1 | < 50
82 | OCCCc1ccc2nc(C(O)(c3ccccc3)c3ccccc3)n(CCO)c2c1 | < 50
83 | CCn1c(C(O)(c2ccccc2)c2ccccc2)nc2ccc(C(=O)NCC(C)(F)F)cc21 | < 50
84 | CCn1c(C(O)(c2ccccc2)c2ccccc2)nc2ccc(C(=O)Nc3ccn(CC(C)C)n3)cc21 | < 50
85 | Cn1c(C(O)(c2ccccc2F)c2ccccc2F)nc2ccc(C(=O)NCC(F)F)cc21 | < 50

Biological target: T1, Acetyl-coenzyme A synthetase, cytoplasmic
Assay: Inhibition of ACSS2 in human HCT116 cells pre-incubated for 2 hrs before [1,2-14C] sodium acetate addition and measured after 3 hrs by [14C]-Acetate uptake assay
Type: cell-based

Row | SMILES | IC50 [nM]
86 | CCn1c(C(O)(c2ccccc2)c2ccccc2)nc2ccc(C(=O)NCC#N)cc21 | < 50
87 | CCn1c(C(O)(c2ccccc2)c2ccccc2)nc2ccc(C(=O)NCC(C)(C)O)cc21 | 50 to 249
88 | C[C@@H](O)CNC(=O)c1ccc2nc(C(O)(c3ccccc3)c3ccccc3)n(CCO)c2c1 | < 50
89 | CCN1C[C@@H](NC(=O)c2ccc3nc(C(O)(c4ccccc4F)c4ccccc4F)n(C)c3c2)CCC1=O | < 50
90 | CCn1c(C(O)(c2ccccc2)c2ccccc2)nc2ccc(C(O)C(F)(F)COC(C)=O)cc21 (centres undefined) | < 50
91 | CCn1c(C(O)(c2ccccc2F)c2ccccc2F)nc2ccc(C(=O)N[C@H]3CCC(=O)N(C)C3)cc21 | 50 to 249
92 | CCn1c(C(O)(c2ccccc2)c2ccccc2)nc2ccc(C(=O)NC3COC3)cc21 | 50 to 249
93 | CCn1c(C(O)(c2ccccc2)c2cccc(O)c2)nc2ccc(C(=O)NC[C@@H](C)O)cc21 (some centres undefined) | < 50
94 | CCn1c(C(O)(c2ccccc2)c2ccccc2)nc2ccc(C(=O)NCCC#N)cc21 | < 50
